Experimental data reported in patent US9579406B2, “Phospholipid ether analogs as agents for detecting and locating cancer, and methods thereof” (Cellectar, Inc., priority 2004, dated 2017).
“Also recorded” adds a separate entry of the source.

Assays:
C6 glioma = assay: Tissue distribution in C6 glioma tumor-bearing rats; format: in vivo
Method: The inventors evaluated the imaging characteristics of NM404 in C6 glioma (3-5 mm in diameter) tumor-bearing and sham-operated rats. Tissue distribution analysis was performed with ^125I-NM404 at 24 and 48 hours after injection, and a separate group of animals subjected to microPET scanning at various times following injection of ^124I-NM404. Biodistribution analysis indicated minimal NM404 radioactivity in normal brain tissue, however, tumor/brain ratios (% injected dose/g) were 10.6, and 12.0 at 24, 48 hours, respectively. (FIG. 15) NM404 tumor uptake was corroborated by histology.

[1] = MIRDOSE radiation dose estimates for the adult female; set-up: species or system human (from female rat biodistribution data)
Method: Dosimetry estimation regarding I-125-NM404 for an adult female patients were calculated based on SPECT imaging data using female non-tumor bearing rats following administration of I-131-NM404. The results are listed below:
The dosimetry data were calculated from SPECT imaging in rats using I-131-NM404 and then converted to I-125-NM404. The adrenal gland seems to be the dose-limiting or critical organ for radiation exposure. In the SPECT imaging experiments the thyroids of rats were unblocked. Thus, the thyroid calculations should be evaluated with caution.

[2] = system: human PC-3 prostate tumor xenografts; assay: Scintigraphy and tissue distribution in SCID mice bearing human PC-3 prostate tumor xenografts; format: in vivo; settings: 3 days after injection
Source text: Gamma camera scintigraphy images shown in FIG. 19 directly compare the tumor uptake and body clearance of second generation analog ^125I-NM-404 (6) versus its shorter chain, first generation predecessor, ^125I-NM-324 (2) at 1, 2, and 4 days post administration in immune-compromised SCID mice bearing human PC-3 prostate tumor xenografts.
Extensive quantitative tissue distribution results obtained at 1, 3, 5, and 8 days following administration of radioiodinated NM-404 in this model indicated rapid elimination of radioactivity from all normal tissues over the 8 day evaluation period. Tumor uptake, however, continued to increase up until day 5 when it reached 18% injected dose per gram of tumor. […] Tumor to background tissue ratios exceeded 4, 6.8, 23, and 9 in blood, liver, muscle, and prostate, respectively, 3 days after injection and continued to improve at 5 and 8 days. Again, although thyroid levels ranged from 26 to 54% injected dose per gram of tissue, these levels are actually quite low and represent an extremely small percentage of the injected dose when the exceedingly small mass of the organ is considered and the data are presented on a percent administered dose per organ basis.

[3] = system: xenograft and spontaneous tumor models; format: in vivo; settings: radioiodinated NM404
[4] = system: non-small cell lung cancer; assay: Planar gamma-camera scintigraphy with 131I-NM-404 in NSCLC patients; settings: human, in vivo

C[N+](C)(C)CCOP(=O)([O-])OCCCCCCCCCCCCCCCCCCc1ccc([125I])cc1 [Compound I-125-NM404]
tumor/brain ratio (% injected dose/g) (C6 glioma; 24 hours): 10.6
tumor/brain ratio (% injected dose/g) (C6 glioma; 48 hours): 12.0
RESIDENCE TIME ([1]; Adrenals): 0.0899 h
RESIDENCE TIME ([1]; Heart Wall): 0.654 h
RESIDENCE TIME ([1]; Kidneys): 1.22 h
RESIDENCE TIME ([1]; Liver): 5.71 h
RESIDENCE TIME ([1]; Lungs): 4.5 h
RESIDENCE TIME ([1]; Muscle): 37.8 h
RESIDENCE TIME ([1]; Ovaries): 0.0395 h
RESIDENCE TIME ([1]; Red Marrow): 3.83 h
RESIDENCE TIME ([1]; Remainder): 18.3 h
RESIDENCE TIME ([1]; Small Intestine): 4.68 h
RESIDENCE TIME ([1]; Spleen): 0.629 h
RESIDENCE TIME ([1]; Thyroid): 0.444 h
RESIDENCE TIME ([1]; Urinary Bl Cont): 0.233 h
RESIDENCE TIME ([1]; Uterus): 0.334 h

C[N+](C)(C)CCOP(=O)([O-])OCCCCCCCCCCCCCCCCCCc1ccc(I)cc1 [NM-404, 18-(4-iodophenyl)-octadecylphosphocholine]
tumor to background tissue ratio, blood [2]: exceeded 4
tumor to background tissue ratio, liver [2]: > 6.8
tumor to background tissue ratio, muscle [2]: > 23
tumor to background tissue ratio, prostate [2]: > 9
tumor models with tumor selectivity / selective retention [3]: 27/27
liver and abdominal radioactivity levels relative to NM-324 [4]: much lower; also recorded: significantly lower liver, kidney and abdominal background radioactivity levels
